What follows are molecules tested against human RXFP1 (Homo sapiens, UniProt Q9HBX9) (assay: RXFP1 cAMP assay (hRXFP1 HEK293 cAMP assay, HTRF)). Conditions: read-out: cAMP hRXFP1 HEK293 Assay EC50, HEK293 cells stably expressing human RXFP1, 30 min at room temperature.

Chains of the proteins cited; added tags and fusions are not shown.
UniProt Q9HBX9, whole entry: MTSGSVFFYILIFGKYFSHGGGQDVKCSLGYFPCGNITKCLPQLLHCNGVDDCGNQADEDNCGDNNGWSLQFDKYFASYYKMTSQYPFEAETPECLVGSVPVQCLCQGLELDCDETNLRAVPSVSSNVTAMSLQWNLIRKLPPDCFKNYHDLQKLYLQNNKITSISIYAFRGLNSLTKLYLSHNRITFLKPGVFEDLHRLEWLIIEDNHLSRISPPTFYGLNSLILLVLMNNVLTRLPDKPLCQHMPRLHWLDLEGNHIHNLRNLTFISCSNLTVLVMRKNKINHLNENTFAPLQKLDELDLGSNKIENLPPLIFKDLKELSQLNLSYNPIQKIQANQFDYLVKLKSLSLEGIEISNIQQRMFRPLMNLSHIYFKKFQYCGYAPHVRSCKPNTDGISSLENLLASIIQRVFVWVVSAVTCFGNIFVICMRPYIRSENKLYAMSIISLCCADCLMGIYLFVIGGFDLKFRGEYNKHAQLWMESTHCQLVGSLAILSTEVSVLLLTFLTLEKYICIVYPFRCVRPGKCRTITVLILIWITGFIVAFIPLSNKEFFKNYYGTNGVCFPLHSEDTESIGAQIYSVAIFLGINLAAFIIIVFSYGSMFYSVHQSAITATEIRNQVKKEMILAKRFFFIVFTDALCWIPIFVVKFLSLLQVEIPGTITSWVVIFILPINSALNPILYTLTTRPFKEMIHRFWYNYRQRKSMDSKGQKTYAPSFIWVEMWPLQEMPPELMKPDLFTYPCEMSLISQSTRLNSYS

| Compound | EC50 [nM] |
| --- | --- |
| COc1cc(F)c(F)cc1C(=O)N[C@H]1[C@@H](C(=O)Nc2ccc(F)c(C(F)(F)F)c2)[C@H]2CC[C@@H]1/C2=C\C#Cc1ccccc1 | 2200 |
| COc1ccc(C2CCN(C(=O)c3ccccc3)C2)cc1C(=O)NC1C2CCC(C2=CC(F)(F)F)C1C(=O)Nc1ccc(F)c(C(F)(F)F)c1 (stereo not shown) | 254 |
| COc1cc(F)c(F)cc1C(=O)N[C@@H]1C2CCC(C2=CC(=O)NCCCCc2ccccc2)[C@@H]1C(=O)Nc1ccc(F)c(C(F)(F)F)c1 (stereo partly shown) | 3800 |
| CN(C)c1c(Cl)cc(C2=NOC3COCC23)cc1C(=O)N[C@H]1[C@@H](C(=O)Nc2ccc(F)c(C(F)(F)F)c2)[C@H]2CC[C@@H]1/C2=C\C(F)(F)F (single isomer, unassigned) | 168 |
| COc1ccc(C2CN(C(=O)[C@H]3CC[C@@H](O)CC3)C2)cc1C(=O)N[C@H]1[C@@H](C(=O)Nc2ccc(F)c(C(F)(F)F)c2)[C@H]2CC[C@@H]1/C2=C\C1CC1 | 58.1 |
| COc1ccc(C2=NOC3C4CC(C(O)C4O)C23)cc1C(=O)N[C@H]1[C@@H](C(=O)NCC(C)(C)C)[C@H]2CC[C@@H]1/C2=C\C1CC1 (single isomer, unassigned) | 10.5 |
| COc1ccc(-c2cc(C(O)C(F)(F)F)ccc2F)cc1C(=O)N[C@@H]1C2CCC(/C2=C/C2CC2)[C@@H]1C(=O)Nc1ccc(F)c(C(F)(F)F)c1 (single isomer, unassigned) | 9 |
